pIC50: −log10 of the molar value.
Assays:
A-375 = test: Tumor cell proliferation (CellTiter-Glo); format: cell-based; details: A-375, Melanocarcinoma, 72 hours
A-431 = test: Tumor cell proliferation (CellTiter-Glo); format: cell-based; details: A-431, Skin cancer, 72 hours
U-937 = test: Tumor cell proliferation (CellTiter-Glo); format: cell-based; details: U-937, Lymphoma, 72 hours
NCI-H1299 = test: Tumor cell proliferation (CellTiter-Glo); format: cell-based; details: NCI-H1299, Lung cancer, 72 hours
SK-OV-3 = test: Tumor cell proliferation (CellTiter-Glo); format: cell-based; details: SK-OV-3, Ovarian cancer, 72 hours
A549 = test: Tumor cell proliferation (CellTiter-Glo); format: cell-based; details: A549, Lung cancer, 72 hours
SK-HEP-1 = test: Tumor cell proliferation (CellTiter-Glo); format: cell-based; details: SK-HEP-1, Liver cancer, 72 hours
HCC827 = test: Tumor cell proliferation (CellTiter-Glo); format: cell-based; details: HCC827, Lung cancer, 72 hours
[1] = system: PCNA, MMP9 and Collagen-1 protein expression; test: Western blotting of PCNA, MMP9 and Collagen-1 in Ang2-treated A7R5 cells; details: Ang2, 50 nM; control 100%, Ang2 220%±22.4% (FIG. 52A)
MRC-5 cells = test: MTT cell viability of TGF-β1-treated MRC-5 cells; details: MRC-5, 5 ng/mL TGF-β1, different concentrations, 4 hours
REH = details: Acute non-B or non-T cell lymphoma, 72 hours
[2] = system: TNF-α and CD206 expression in BV2 cells; test: Immunofluorescence of TNF-α and CD206 in LPS-stimulated BV2 cells; details: BV2, 1 μg/mL LPS, a certain concentration, 12 h
ApoE−/− mice = test: Body weight and blood glucose of high-fat diet-fed ApoE−/− mice; details: 12 weeks
RD = details: Malignant embryonal rhabdomyosarcoma, 72 hours
KG-1 = test: Tumor cell proliferation (CellTiter-Glo); details: KG-1, Myeloma, 72 hours
U-2 OS = test: Tumor cell proliferation (CellTiter-Glo); details: Bone cancer, 72 hours
MDA-MB-231 = test: Tumor cell proliferation (CellTiter-Glo); details: MDA-MB-231, Breast cancer, 72 hours
MCF7 = test: Tumor cell proliferation (CellTiter-Glo); details: MCF7, Breast cancer, 72 hours
HT-29 = test: Tumor cell proliferation (CellTiter-Glo); details: HT-29, Colon cancer, 72 hours
[3] = system: X-ray irradiated C57BL/6 mice; test: X-ray irradiation damage in C57BL/6 mice (leukocytes, body weight, saliva)
[4] = system: α-SMA and Calponin1 expression in MRC-5 cells; test: Immunofluorescence staining of α-SMA and Calponin1 in TGF-β1-treated MRC-5 cells; details: 24 h
SH-SY5Y cells = test: MTT cell viability of CBE-treated SH-SY5Y cells; details: 50 nM, 24 h
[5] = system: SH-SY5Y cells (lysosomal storage); test: Lyso-tracker staining of CBE-treated SH-SY5Y cells
HepG2 cells = test: Oil red O staining and triglycerides in oleic acid-treated HepG2 cells; details: HepG2, 0.5 mM oleic acid, 50 nM, 24 hr
A7R5 cells = test: A7R5 cell migration capacity (scratch assay); details: control 100%, Ang2 184%±[…]

O=[As]c1cc(F)c(F)c(F)c1 (stereo not drawn)
pIC50 (A-375): 7.34 | pIC50 (A-431): < 6.70 | pIC50 (U-937): 6.92 | pIC50 (NCI-H1299): 6.78 | pIC50 (SK-OV-3): 6.73 | pIC50 (A549): < 6.70 | pIC50 (SK-HEP-1): 7.22 | pIC50 (HCC827): 6.81 | Collagen-1 protein expression (WB) [1]: 104%±5.8% | cell viability (MTT) versus 5 ng/mL TGF-β1-treated group (MRC-5 cells): no significant change | pIC50 (REH): 7.57 | CD206 expression level (immunofluorescence) versus LPS-treated group [2]: decreasing trend | random, postprandial and fasting blood glucose (ApoE−/− mice): reduced or tended to reduce | pIC50 (RD): 7.57 | pIC50 (KG-1): 6.93 | pIC50 (U-2 OS): 7.35 | pIC50 (MDA-MB-231): 6.82 | pIC50 (MCF7): 6.82 | pIC50 (HT-29): 6.81 | Salivary weight ([3]; Day 7, 15 Gy X-ray, PAO 0.3, F3PAO 0.15 mg/kg p.o. qd): 0.107 ± 0.016^Y g | Salivary weight ([3]; Day 14, 15 Gy X-ray, PAO 0.3, F3PAO 0.15 mg/kg p.o. qd): ^##0.13 ± 0.01 g | Salivary weight ([3]; Day −1 (before irradiation), PAO 0.3, F3PAO 0.15 mg/kg p.o. qd groups): 0.145 ± 0.002 g | α-SMA fluorescence signal intensity versus TGF-β1-treated group ([4]; MRC-5, 5 ng/mL TGF-β1, 25 nM): significant decrease | α-SMA fluorescence signal intensity versus TGF-β1-treated group ([4]; MRC-5, 5 ng/mL TGF-β1, 50 nM): significant decrease | cell viability (MTT) versus 100 μM CBE-treated group (SH-SY5Y cells): significantly increased | fluorescence intensity of Lyso-tracker versus 100 μM CBE-treated group ([5]; 25 nM): significantly decreased | fluorescence intensity of Lyso-tracker versus 100 μM CBE-treated group ([5]; 50 nM): significantly decreased | accumulation of triglycerides (HepG2 cells): significantly reduced | migration capacity (scratch assay) (A7R5 cells; A7R5, Ang2, 50 nM): 155%±6.4% | migration capacity (scratch assay) (A7R5 cells; A7R5, Ang2, 100 nM): 147%±4.1%
